The data set can be described thus: Pharmacokinetic study in rats after oral administration of SYD extract and its single and combined TCM extracts (UPLC-MS/MS of plasma). The note with it: male, Sprague-Dawley, rat, n = 6.

As for `O=C(/C=C/c1ccc(O)c(O)c1)O[C@@H]1C[C@](O)(C(=O)O)C[C@@H](O)[C@H]1O` [Chlorogenic acid, chlorogenic acid], the Tmax (usually the time at which the peak concentration occurs) by setting is: (4.28 g/kg, oral SN + AS + GU extract 4.28 g/kg) 1.58 ± 0.38 h; (4.73 g/kg, oral LJ + SN + GU extract 4.73 g/kg) 1.67 ± 0.26 h; (5.43 g/kg, oral LJ + SN + AS extract 5.43 g/kg) 1.58 ± 0.38 h; (8.25 g/kg, oral SYD extract 8.25 g/kg) 1.67 ± 0.26 h.

The values are drawn from paper PMC6150365, “Simultaneous Determination of Seven Components in Rat Plasma by the UPLC-MS/MS Method and Application of Pharmacokinetic Studies to SimiaoYong’an Decoction” (Molecules : A Journal of Synthetic Chemistry and Natural …, 2017).
